Values quoted from earlier work as cited in PMC2748165 (Biochemical pharmacology, 2009).

Chains of the proteins cited; added tags and fusions are not shown.
UniProt P08183, whole entry: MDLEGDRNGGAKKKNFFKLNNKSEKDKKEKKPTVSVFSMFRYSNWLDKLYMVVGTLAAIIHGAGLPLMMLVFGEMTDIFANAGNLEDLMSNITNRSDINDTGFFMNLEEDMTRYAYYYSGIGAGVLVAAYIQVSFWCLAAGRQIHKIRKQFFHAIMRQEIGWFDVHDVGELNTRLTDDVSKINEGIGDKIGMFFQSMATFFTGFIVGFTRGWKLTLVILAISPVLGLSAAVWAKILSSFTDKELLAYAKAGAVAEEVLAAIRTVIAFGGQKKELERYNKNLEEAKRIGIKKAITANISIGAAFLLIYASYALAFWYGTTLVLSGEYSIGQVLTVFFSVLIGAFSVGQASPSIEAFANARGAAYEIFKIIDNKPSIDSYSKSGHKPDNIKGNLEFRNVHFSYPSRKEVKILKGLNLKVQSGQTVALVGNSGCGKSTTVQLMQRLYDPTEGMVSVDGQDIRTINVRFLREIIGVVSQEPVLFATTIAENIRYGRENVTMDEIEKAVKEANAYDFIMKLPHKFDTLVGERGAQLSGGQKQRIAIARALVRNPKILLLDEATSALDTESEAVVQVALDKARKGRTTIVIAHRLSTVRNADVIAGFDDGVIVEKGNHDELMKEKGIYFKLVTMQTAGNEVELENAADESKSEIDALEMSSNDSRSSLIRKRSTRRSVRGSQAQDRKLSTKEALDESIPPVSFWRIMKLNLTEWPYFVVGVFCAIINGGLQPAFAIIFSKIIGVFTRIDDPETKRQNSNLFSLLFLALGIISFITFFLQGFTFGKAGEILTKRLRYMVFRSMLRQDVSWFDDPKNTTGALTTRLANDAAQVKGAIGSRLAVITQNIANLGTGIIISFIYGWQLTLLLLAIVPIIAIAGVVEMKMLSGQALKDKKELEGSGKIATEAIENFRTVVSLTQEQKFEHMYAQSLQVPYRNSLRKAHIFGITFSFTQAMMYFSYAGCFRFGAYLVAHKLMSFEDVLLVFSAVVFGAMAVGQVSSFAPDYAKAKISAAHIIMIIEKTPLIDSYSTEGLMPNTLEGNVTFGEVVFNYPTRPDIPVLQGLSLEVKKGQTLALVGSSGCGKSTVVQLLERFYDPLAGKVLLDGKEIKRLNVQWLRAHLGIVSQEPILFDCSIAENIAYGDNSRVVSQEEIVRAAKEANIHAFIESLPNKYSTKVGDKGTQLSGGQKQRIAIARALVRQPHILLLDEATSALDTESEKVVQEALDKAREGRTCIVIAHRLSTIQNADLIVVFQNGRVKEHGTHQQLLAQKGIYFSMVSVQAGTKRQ

Columns and labels:
placental P-gp = settings: P-gp inhibitor (GF120918) added to perfusion medium; cited from earlier work
P-gp = P-gp (Homo sapiens, UniProt P08183); settings: human cDNA-P-gp membrane preparations; cited from earlier work
[1] = dual perfusion of human placental lobule; cited from earlier work

## buprenorphine
Placental P-gp
  effect of P-gp inhibitor on concentration in / transfer to the fetal circuit: but not buprenorphine
P-gp
  interaction with P-gp as determined by stimulation of ATP hydrolysis: interact/bind to P-gp
[1]
  rate of transfer from the maternal to fetal circuit: 11.6 ± 2.5%
